Data from ChEMBL document CHEMBL1154346 (Bioorg Med Chem Lett, 2009).

Key:
[1] = molecular target: T1, Nociceptin receptor (Homo sapiens, UniProt P41146); assay: Displacement of [3H]nociceptin from human NOP receptor expressed in CHO cells
[2] = molecular target: Mu-type opioid receptor (Homo sapiens, UniProt P35372); assay: Displacement of [3H]diprenorphine from human MOP receptor expressed in CHOK1 cells; conditions: cho-k1
[3] = molecular target: T1, Nociceptin receptor; assay: Agonist activity at human NOP receptor expressed in CHO cells assessed as inhibition of forskolin-stimulated cAMP production after 2 hrs

| Structure (SMILES) | Ki [1] [nM] | Ki [2] [nM] | IC50 [3] [nM] |
| --- | --- | --- | --- |
| CNC(=O)Cn1c(=O)n(C2CCN(C3CCC(C)(C)CC3)CC2)c2ccccc21 | 5.2 | 282 | – |
| CNC(=O)CN1c2ccccc2N(C2CCN(C3CCCCCC3)CC2)S1(=O)=O | 111 | 3180 | 339 |
| CNC(=O)CN1Cc2ccccc2N(C2CCN(Cc3ccc(C)c4ccccc34)CC2)C1=O | 22 | 19 | – |
| CNC(=O)Cn1c(=O)n(C2CCN(C3CCCC4(CCCCC4)C3)CC2)c2ccccc21 (stereo unspecified) | 1.3 | 34 | – |
| CNC(=O)Cn1c(=O)n(C2CCN(CC3CCCCC3)CC2)c2ccccc21 | 259 | 1880 | – |
| CNC(=O)Cn1c(=O)n(C2CCN(C3CCCC3(C)C)CC2)c2ccccc21 (stereo unspecified) | 62 | 350 | – |
| CNC(=O)CN1Cc2ccccc2N(C2CCN(C3CCC4CCCCC4C3)CC2)S1(=O)=O (stereo unspecified) | 5 | 14 | 28 |
| CNC(=O)Cn1c(=O)n(C2CCN(C3CCCCCC3)CC2)c2ccccc21 | 35 | 1790 | – |
| CNC(=O)CN1c2ccccc2N(C2CCN(C3CCC4CCCCC4C3)CC2)S1(=O)=O (stereo unspecified) | 7.1 | 268 | 12 |
| CNC(=O)Cn1c(=O)n(C2CCN(C3CCC(C)(C)CC3(C)C)CC2)c2ccccc21 (stereo unspecified) | 4.7 | 47 | – |
| CNC(=O)CN1c2ccccc2N(C2CCN(C3CCC(C(C)C)CC3)CC2)S1(=O)=O (stereo unspecified) | 6.4 | 346 | 21 |
| CNC(=O)Cn1c(=O)n(C2CCN(Cc3cccc4ccccc34)CC2)c2ccccc21 | 29 | 67 | – |
| CNC(=O)CN1c2ccccc2N(C2CCN(C3CCCCCCCCC3)CC2)S1(=O)=O | 2.5 | 107 | 7.5 |
| CNC(=O)Cn1c(=O)n(C2CCN(Cc3ccc(OC)c4ccccc34)CC2)c2ccccc21 | 18 | 120 | – |
| CNC(=O)Cn1c(=O)n(C2CCN(C3CCC4CCCCC4C3)CC2)c2ccccc21 (stereo unspecified) | 3.5 | 127 | – |
| CNC(=O)Cn1c(=O)n(C2CCN(CCC(C)(C)C)CC2)c2ccccc21 | 186 | 2710 | – |
| CNC(=O)Cn1c(=O)n(C2CCN(C3CCC(C(C)(C)C)CC3)CC2)c2ccccc21 (stereo unspecified) | 5.5 | 77 | – |
| CNC(=O)Cn1c(=O)n(C2CCN(C3CCCCCCC3)CC2)c2ccccc21 | 15 | 608 | – |
| CNC(=O)CN1Cc2ccccc2N(C2CCN(C3CCC(C(C)C)CC3)CC2)S1(=O)=O (stereo unspecified) | 2.9 | 12 | 16 |
| CNC(=O)Cn1c(=O)n(C2CCN(Cc3ccc(C)c4ccccc34)CC2)c2ccccc21 | 2.7 | 138 | – |
